Experimental findings from patent publication US8575156B2, “Cyclic inhibitors of 11β-hydroxysteroid dehydrogenase 1” (Vitae Pharmaceuticals, Inc., priority 2007, dated 2013) are described below.

Chains of the proteins cited; added tags and fusions are not shown.
UniProt P28845, whole entry: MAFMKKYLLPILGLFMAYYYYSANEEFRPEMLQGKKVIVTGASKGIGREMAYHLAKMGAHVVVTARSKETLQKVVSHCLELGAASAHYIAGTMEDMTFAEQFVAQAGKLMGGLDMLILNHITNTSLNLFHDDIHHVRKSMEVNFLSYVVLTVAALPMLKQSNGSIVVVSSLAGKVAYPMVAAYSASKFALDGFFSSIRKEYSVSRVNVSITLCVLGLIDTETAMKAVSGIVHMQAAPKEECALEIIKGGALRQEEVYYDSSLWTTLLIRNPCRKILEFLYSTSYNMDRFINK

For the assay, the target named is 11β-HSD1 (Homo sapiens, UniProt P28845). As to conditions: for Average % inhibition at 100 nM: Biological Test Example 1, 100 nM compound, 0.1 µM.

Molecules are shown by their SMILES. Some results are limits rather than exact numbers.

For `COc1ccc([C@H](C)N2CCC(CCO)(c3ccccc3)OC2=O)cc1` (single isomer, unassigned) [EXAMPLE 191 Isomer 1], the IC50 is under 100 nM and the “Average % inhibition at 100 nM” value is on record as 98.9%.

In the case of `COc1ccc([C@H](C)N2CCC(CCO)(c3ccccc3)OC2=O)cc1` (single isomer, unassigned) [EXAMPLE 191 Isomer 2], the IC50 is under 100 nM and the “Average % inhibition at 100 nM” value is given as 69.0%.

In general, IC50 refers to the midpoint of a concentration-inhibition curve. Read a low IC50 as greater potency in that assay.
